1 substance from US20070078109A1, “Compositions and methods used to treat acne and candida” (priority 2004, published 2007) can be followed below.

One data set has as its system acne. Conditions: acne patients, 4% active AGP formula.
Data set [1] concerns C. albicans isolates, including one fluconazole-resistant strain. Conditions: AGP at 0.25% topical, 1-7 days. Here is the method:
Pre-clinical studies with three C. albicans isolates, including one fluconazole-resistant strain, were performed using immunosuppressed animals with cyclophosphamide.

For the substance “N-acetylglucoseamine (AGA)-glucosamine (GA)-pyrithione (PR) [AGP]”, the “irritation or other side effects” value in the data set on acne is listed as “no irritation or other side effects”. In addition, the local adverse effects result in data set [1] was “free of local adverse effects”.
